Source: PubChem BioAssay AID743397 (Broad Institute, 2014)
The entries are a selection whose mix differs from that of the whole data set. Active and inactive are the calls of the source.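 How the source made its calls: active means mean replicate inhibition of at least 30% and at least 1% of replicates passing that level; inconclusive means only one of the two criteria is met; inactive means neither criterion is met.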

System: Voltage-dependent L-type calcium channel subunit alpha-1D (CaV1.3) ICDI/IQ interaction
Test: Disruptors of the CACNA1D IQ motif to Ca2+-dependent inactivation inhibitor domain association, primary screening, Förster resonance energy transfer in intact living cells, one concentration (AID 743397);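 further: 0% = median of the neutral control wells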
Details: HEK cells, CFP/YFP FRET ICDI-IQ, plate reader, 10 min; at 12.3 µM; active compounds read high; percent FRET-ratio fall versus neutral wells

| SMILES | inhibition |
| --- | --- |
| Cc1ccccc1NC1(C#N)CCN(Cc2ccccc2)CC1 | inactive: -8.78% |
| COc1ccc(C(c2nnnn2C2CCCCC2)N2CCC(n3c(=O)[nH]c4ccccc43)CC2)cc1 (stereo not given) | inactive: -9.08% |
| CCN1CCC(Nc2cccc(F)c2)CC1 | inactive: -5.12% |
| CC(C)(C)n1nnnc1C(c1ccnc2ccccc12)N1CCC(n2c(=O)[nH]c3ccccc32)CC1 (stereo not given) | inactive: -5.41% |
| O=C(NCC1(N2CCCCC2)CCCCC1)c1ccco1 | inactive: -1.58% |
| CN(C)c1ccc(C(=O)NCC2(N3CCCCC3)CCCCC2)cc1 | inactive: 4.76% |
| Cn1c(=O)[nH]cc(N(CCCl)CCCl)c1=O | inactive: -9.15% |
| COc1cccc(C(c2nnnn2C2CCCCC2)N2CCC(n3c(=O)[nH]c4ccccc43)CC2)c1OC (stereo not given) | inactive: -3.24% |
| CC(=O)N(c1ccccc1)C1CCNCC1 | inactive: -2.61% |
| CCC(c1nnnn1C1CCCCC1)N1CCC(n2c(=O)[nH]c3ccccc32)CC1 (stereo not given) | inactive: -4.84% |
| COc1cc(OC)cc(C(=O)NCC2(N3CCCCC3)CCCCC2)c1 | inactive: -2.48% |
| O=c1[nH]c2ccccc2n1C1CCN(C(c2ccnc3ccccc23)c2nnnn2C2CCCCC2)CC1 (stereo not given) | inactive: -5.93% |
| Cc1ccc(C(=O)NCC2(N3CCCCC3)CCCCC2)o1 | inactive: -5.77% |
| Fc1ccccc1NC1CCN(Cc2ccccc2)CC1 | inactive: -6.85% |
| Cc1ccc(NC2(C#N)CCN(Cc3ccccc3)CC2)cc1 | inactive: -9.21% |
| COc1cccc(C(=O)N(c2cc(C)cc(C)c2)C2CCN(C(=O)OC(C)(C)C)CC2)c1 | inactive: -17.8% |
| COc1cc(OC)cc(C(=O)NCC2(N3CCOCC3)CCCCC2)c1 | inactive: -4.35% |
| CN1CCC(Nc2ccc(Cl)cc2)CC1 | inactive: -1.93% |
| CCOc1ncccc1C(=O)NCC1(N2CCOCC2)CCCCC1 | inactive: -3.58% |
| CN1CCC(Nc2ccc(F)c(Cl)c2)CC1 | inactive: 9.25% |

| SMILES | inhibition |
| --- | --- |
| CC(C)(C)OC(=O)N1CCC(Nc2ccccc2)CC1 | inactive: 6.27% |
| NN(c1ccccc1)C1CCN(CCc2ccccc2)CC1 | inactive: -6.38% |
| O=C(O)C1(Nc2ccccc2)CCN(Cc2ccccc2)CC1 | inactive: -19.5% |
| O=c1[nH]c2ccccc2n1C1CCN(C(c2cc3ccccc3o2)c2nnnn2C2CCCC2)CC1 (stereo not given) | inactive: -6.47% |
| CCCOc1ccc(C(=O)NCC2(N(C)C)CCCCC2)cc1 | inactive: -3.76% |
| CCOC(=O)N1CCC(Nc2ccc(C)cc2)CC1 | inactive: 11.1% |
| COc1cccc(C(c2nnnn2C(C)(C)C)N2CCC(n3c(=O)[nH]c4ccccc43)CC2)c1OC (stereo not given) | inactive: -4.9% |
| N/C(=N\O)c1c(N)no[n+]1[O-] | inactive: -2.38% |
| O=C(OC1CN2CCC1CC2)C1c2ccccc2C=Cc2ccccc21 (stereo not given) | inactive: -5.83% |
| O=c1[nH]c2ccccc2n1C1CCN(C(c2cccs2)c2nnnn2C2CCCC2)CC1 (stereo not given) | inactive: -4.48% |
| CCCCn1nnnc1C(c1cccc(OC)c1OC)N1CCC(n2c(=O)[nH]c3ccccc32)CC1 (stereo not given) | inactive: -9.98% |
| CCCCn1nnnc1C(c1ccccc1)N1CCC(n2c(=O)[nH]c3ccccc32)CC1 (stereo not given) | inactive: -9.67% |
| COc1cc(C(=O)NCC2(N3CCOCC3)CCCCC2)cc(OC)c1C | inactive: -6.17% |
| O=C(NCC1(N2CCOCC2)CCCCC1)c1cc(Br)ccc1Cl | inactive: -6.22% |
| O=c1[nH]c2ccccc2n1C1CCN(C(c2cccs2)c2nnnn2C2CCCCC2)CC1 (stereo not given) | inactive: -4.51% |
| COc1ccc(C(=O)NCC2(N3CCOCC3)CCCCC2)cc1OC | inactive: -6.92% |
| O=c1[nH]c2ccccc2n1C1CCN(C(c2ccnc3ccccc23)c2nnnn2C2CCCC2)CC1 (stereo not given) | inactive: -5.24% |
| CN(C)C1(CNC(=O)c2cccc(C#N)c2)CCCCC1 | inactive: -19% |
| C/C(N)=N\P(=O)(Oc1ccccc1)Oc1ccccc1 | inactive: -3.84% |
| c1ccc(CN2CCC(Nc3ccccc3)CC2)cc1 | inactive: -5.62% |

| SMILES | inhibition |
| --- | --- |
| CCCN1CCC(Nc2cc(OC)cc(OC)c2)CC1 | inactive: -19.1% |
| Cc1cc(N(CCCl)CCCl)ccc1C=O | inactive: -2.49% |
| CC(C)(C)n1nnnc1C(c1cccc2ccccc12)N1CCC(n2c(=O)[nH]c3ccccc32)CC1 (stereo not given) | inactive: -5.02% |
| N#Cc1ccc(C(=O)NCC2(N3CCCCC3)CCCCC2)cc1 | inactive: -2.59% |
| CC(C)(C)OC(=O)N1CCC(N(C(=O)c2ccccc2)c2ccc(Cl)cc2)CC1 | inactive: -18.2% |
| O=C(NCC1(N2CCCCC2)CCCCC1)c1cccc(C(F)(F)F)c1 | inactive: -3.47% |
| O=C(NCC1(N2CCOCC2)CCCCC1)c1cc(=O)[nH]c2ccccc12 | inactive: 1.55% |
| COc1cc(C(=O)NCC2(N3CCCCC3)CCCCC2)ccc1OC(F)F | inactive: -7.19% |
| COc1ccc(NC2CCN(C(=O)OC(C)(C)C)CC2)cc1 | inactive: -15.5% |
| CC(C)c1ccc(C(=O)NCC2(N3CCOCC3)CCCCC2)cc1 | inactive: -4.69% |
| CN1CCN(CCOC(=O)C(O)(c2ccccc2)c2ccccc2)CC1 | inactive: -4.01% |
| CCCCn1nnnc1C(c1cccc2ccccc12)N1CCC(n2c(=O)[nH]c3ccccc32)CC1 (stereo not given) | inactive: -5.93% |
| CC(C)(C)n1nnnc1C(c1ccccc1OC(F)(F)F)N1CCC(n2c(=O)[nH]c3ccccc32)CC1 (stereo not given) | inactive: -5.61% |
| O=C(NCC1(N2CCCCC2)CCCCC1)c1ccc(OC(F)F)cc1 | inactive: -3.1% |
| CCN1CCC(Nc2ccc(Cl)cc2)CC1 | inactive: 12% |
| O=c1[nH]c2ccccc2n1C1CCN(C(c2ccccc2OC(F)(F)F)c2nnnn2C2CCCC2)CC1 (stereo not given) | inactive: -5.32% |
| O=C(NCC1(N2CCCCC2)CCCCC1)c1cccc([N+](=O)[O-])c1 | inactive: -17.5% |
| CSc1ccc(C(=O)NCC2(N3CCOCC3)CCCCC2)cc1 | inactive: -5.04% |
| CN1CCC(Nc2cccc(F)c2)CC1 | inactive: -6.4% |
| O=C(NCC1(N2CCCCC2)CCCCC1)c1cncc(Br)c1 | inactive: -4.9% |
